AlphaSeq binding of Ab-14 light chain variants to a spike HR2 peptide

All variants were tested on one target, the spike HR2 peptide PDVDLGDISGINAS (SARS-CoV-2).

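The starting antibody came from a phage panning campaign against this peptide. This is the validation round: designs drawn from the data on random variants, tested in the same kind of assay. Group labels follow the data file (Ctrl: baseline library sampled from a position-specific scoring matrix, with some repeated check sequences; Rand: our label for a block that the file lists under HC and that is probably the random mutants of the ten best first-round binders; GP: Gaussian process model; HC: hill climbing; Gen: genetic algorithm; Gibbs: Gibbs sampling; a sequence that several methods proposed may carry one label only). The assay is AlphaSeq: two haploid yeast populations carry antibody and antigen on their surface. Pairs that bind mate more often; barcode pairs of the diploids are counted by sequencing. Each replicate has its own calibration line, from reference interactions of the BCL2 family. There are six technical replicates.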

Parent scFv Ab-14: VH joined to VL by a 15-residue (Gly4Ser)3 linker. Changes lie in the light chain CDRs alone.
VH: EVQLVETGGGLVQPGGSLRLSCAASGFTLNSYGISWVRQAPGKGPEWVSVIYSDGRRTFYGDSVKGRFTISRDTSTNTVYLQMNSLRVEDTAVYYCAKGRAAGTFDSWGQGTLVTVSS
VL: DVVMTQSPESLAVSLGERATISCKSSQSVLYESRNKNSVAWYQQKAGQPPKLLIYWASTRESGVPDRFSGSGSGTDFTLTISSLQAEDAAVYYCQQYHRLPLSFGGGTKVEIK

Substitutions are numbered in sequence along the VL above, starting at 1 (not Kabat). This list holds designs with at most six substitutions. Each Kd is an estimate from the mating assay, the geometric mean of the replicates in which the pair was seen; lower is stronger. A pair that was not seen in any replicate is written "not detected"; this usually means weak binding, but a binder can also be missed. Values of this round are not directly comparable with the first-round values of the same sequences.

| changes | group | apparent Kd | seen in | signal with controls |
|---|---|---|---|---|
| S25Q+S28Q+V29K+W56D | GP_HC | 610 pM | 6/6 | 1/18 |
| S25L+W56N+E61M+S62E | GP_Gen | 3.7 nM | 6/6 | 2/18 |
| S25L+Q27P+W56E+S62Q | GP_Gen | 370 pM | 6/6 | 2/18 |
| S25L+L30D+W56S | GP_Gen | 1.1 nM | 6/6 | 2/18 |
| S25L+S26A+V29D+W56N | GP_Gen | 5.2 nM | 6/6 | 0/18 |
| H98I | Ctrl | not detected | 0/6 | 0/18 |
| S25Y+S28P+R34T+S62N | Ctrl | 22 nM | 6/6 | 0/18 |
| S25F+S28K+N35T+W56N | GP_HC | 650 pM | 6/6 | 1/18 |
| S25H+Q27I+V29Y+Y31G+S33K+W56E | GP_HC | 2.8 nM | 6/6 | 0/18 |
| S25F+V29Q+W56N+E61C | GP_Gen | 650 pM | 6/6 | 1/18 |
| S25V+S26M+W56N+T59Q+S62L | GP_Gibbs | 1.2 nM | 6/6 | 1/18 |
| Q27I+V29Y+Y31E+W56E+S62G | GP_HC | 1.4 nM | 6/6 | 1/18 |
| R34F+S62D | Ctrl | not detected | 0/6 | 0/18 |
| S25M+Y31D+W56A | Ctrl | 2.7 nM | 6/6 | 0/18 |
| S25W+S26I+Q27E+R34T | Ctrl | 160 nM | 6/6 | 1/18 |
| L30T+W56N | Ctrl | 7.3 nM | 6/6 | 2/18 |
| S25C+S33H+K36Q+Q96D+R99Y+L100F | Ctrl | not detected | 0/6 | 3/18 |
| S25L+S26Q+V29E+W56N+T59K | GP_Gen | 580 pM | 6/6 | 1/18 |
| S25V+S26W+V29W+W56G+S103I | GP_HC | 660 nM | 4/6 | 1/18 |
| S25L+S26D+L30V+W56N | GP_Gibbs | 440 pM | 6/6 | 1/18 |
| K24H+Q27P+L30E+S38N+W56N | GP_HC | 900 pM | 6/6 | 1/18 |
| S26G+V29P+P101D | Ctrl | not detected | 0/6 | 0/18 |
| K24M+S25D+W56N | Ctrl | 950 pM | 6/6 | 0/18 |
| K24M+S25M+S33M+W56K+S62Y | Ctrl | 14 nM | 6/6 | 1/18 |
| S25V+S26L+W56H+S62D | GP_HC | 1.6 nM | 6/6 | 0/18 |
| S26D+W56G+H98F | Ctrl | 1.1 nM | 6/6 | 1/18 |
| S25L+Q27G+V29E+W56N+E61M | GP_Gen | 440 pM | 6/6 | 1/18 |
| W56G+A57G+S62I+Q96S | Ctrl | 13 nM | 6/6 | 0/18 |
| S25L+S26G+Q27C+S28G+W56G | GP_HC | 310 pM | 6/6 | 2/18 |
| S25L+S26M+V29M+K36T+W56H+T59R | GP_Gibbs | 5.6 nM | 6/6 | 2/18 |
| Y97I | Ctrl | not detected | 0/6 | 0/18 |
| K24M | Ctrl | 45 nM | 2/6 | 0/18 |
| S25L+V29D+W56D+E61C | GP_Gen | 700 pM | 6/6 | 0/18 |
| S25F+N35M+W56N+Q96W | GP_HC | 4.9 nM | 6/6 | 1/18 |
| S25Q+W56N+A57G | GP_Gen | 4.4 nM | 6/6 | 1/18 |
| S33N | Ctrl | 48 nM | 3/6 | 0/18 |
| Q95G | Ctrl | not detected | 0/6 | 0/18 |
| L30I+V39M+W56A+Y97C | Ctrl | 180 nM | 1/6 | 1/18 |
| S33D+W56S+Q95K+Y97K+H98Q+L102T | Ctrl | 190 nM | 2/6 | 1/18 |
| S25I+Q27L+Y31S+Y97S | Ctrl | 62 nM | 6/6 | 1/18 |
| S25I+S26L+W56H+S62D | GP_HC | 860 pM | 6/6 | 3/18 |
| K24H+R34S | Ctrl | 5.1 nM | 6/6 | 0/18 |
| S25L+Q27W+S38N+W56G | GP_Gen | 720 pM | 6/6 | 0/18 |
| R34L+W56E+T59Q | GP_HC | 4.1 nM | 6/6 | 0/18 |
| L30E+Y31T+H98L+P101L | Ctrl | 10 nM | 5/6 | 0/18 |
| S28A+Y31T+H98F+S103R | Ctrl | not detected | 0/6 | 0/18 |
| S25L+W56S+A57G | GP_Gen | 430 pM | 6/6 | 0/18 |
| S28L+Y97G | Ctrl | not detected | 0/6 | 0/18 |
| S26A+L100P | Ctrl | not detected | 0/6 | 0/18 |
| S25L+S26Q+S28Q+V29T+S33T+S62E | GP_HC | 2.9 nM | 6/6 | 0/18 |
| S25L+S26P+V29Q+W56N+E61M | GP_Gen | 880 pM | 6/6 | 4/18 |
| V29F+K36F+W56G+P101T | Rand | 1.4 nM | 6/6 | 0/18 |
| S25L+S26Q+V29F+W56N+E61M | GP_Gen | 710 pM | 6/6 | 2/18 |
| S25L+S26Q+W56H+E61C+S62D | GP_Gen | 890 pM | 6/6 | 1/18 |
| S25L+V29D+W56N+E61M | GP_Gen | 420 pM | 6/6 | 2/18 |
| S25L+S38A+W56Q | GP_Gen | 440 pM | 6/6 | 1/18 |
| S25F+N35M+W56N+T59Q | GP_Gen | 720 pM | 6/6 | 1/18 |
| S28W+E32A+R34H | Ctrl | not detected | 0/6 | 0/18 |
| S25L+W56G+T59C | GP_Gen | 950 pM | 6/6 | 2/18 |
| S25M+S26E+S28G+N37G+W56E+T59V | GP_HC | 1.9 nM | 6/6 | 0/18 |

Excerpt, the first 4 entries:

| changes | group | apparent Kd | seen in | signal with controls |
|---|---|---|---|---|
| S25Q+S28Q+V29K+W56D | GP_HC | 610 pM | 6/6 | 1/18 |
| S25L+W56N+E61M+S62E | GP_Gen | 3.7 nM | 6/6 | 2/18 |
| S25L+Q27P+W56E+S62Q | GP_Gen | 370 pM | 6/6 | 2/18 |
| S25L+L30D+W56S | GP_Gen | 1.1 nM | 6/6 | 2/18 |

The authors' rule: three or more of the six replicates give a measured affinity, fewer mean a poor binder. As a blank, each scFv also met three strains without target: over all light chain designs, 4% of these pairings were detected, typically at 430 nM and seldom below 38 nM. The control count says in how many pairings with the empty strains this scFv gave a signal.

From the AlphaSeq antibody data of Li et al. 2023 (doi:10.1038/s41467-023-39022-2), copy in the FLAb collection.